Test system: NADH
Assay: purified protein, by the assay type
Settings: other: 0.1M Tris-HCl, pH 8.0

In the case of “DOI reductase from Burkholderia terrae strain AKC-020 (Paraburkholderia terrae)”, the Km is reported as 0.04 mM (0.1M Tris-HCl, pH 8.0) mM.

Reference: patent US10000743B2, “2-deoxy-scyllo-inosose reductase” (Asahi Kasei Chemicals Corporation, priority 2013, dated 2018)
